## Measured affinities in a library of Ab-14 heavy chain variants

From the AlphaSeq antibody data of Li et al. 2023 (doi:10.1038/s41467-023-39022-2), copy in the FLAb collection.

Antigen: PDVDLGDISGINAS, a 14-residue peptide of the SARS-CoV-2 spike HR2 region.

Each scFv is VH, three GGGGS repeats, VL, as in the parent Ab-14, and differs from it in the CDRs of the heavy chain only.
VH: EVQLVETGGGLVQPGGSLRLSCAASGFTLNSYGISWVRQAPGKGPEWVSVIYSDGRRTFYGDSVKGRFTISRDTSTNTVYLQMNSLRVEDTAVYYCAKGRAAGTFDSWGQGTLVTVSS
VL: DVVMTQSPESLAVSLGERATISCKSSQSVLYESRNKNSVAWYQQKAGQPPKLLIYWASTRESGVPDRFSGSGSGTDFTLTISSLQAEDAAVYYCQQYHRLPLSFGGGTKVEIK

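Phage display of a naive human antibody library on the peptide gave the parent. These sequences belong to a second round, designed from the earlier measurements on random variants of the parent. Several design methods are mixed in this list. AlphaSeq pools MATa yeast showing the antibodies with MATalpha yeast showing the peptide. After mating in shaken culture at 30 °C for 16 h, diploids were selected and their barcode pairs sequenced. The ratio of observed to expected reads was calibrated, replicate by replicate, on BCL2-family standards whose Kd was known from biolayer interferometry. Mating was done six times.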

The parent's heavy chain CDRs are GFTLNSYGIS, VIYSDGRRTFYGDSVK, GRAAGTFDS; each variant's own CDRs replace them letter for letter.
This list holds designs with more than six substitutions.
Kd is apparent (estimated from mating counts) and averaged on the log scale over replicates with a signal. Smaller is tighter.
Where no diploid with the target was found in any replicate, the entry reads "no signal": below detection, most likely a poor binder, though not proof of it.

- GFDLDEYGIS / VIYADGMRTAYIDSVK / GTNAGTFDV -> 310 pM (6 of 6 replicates)
- GFDLNEYGIS / VIYADGLRSAYTDEVK / GKGDNIVFH -> no signal (0 of 6 replicates)
- GFDLEEYGIS / VIYADGLRSYYADNFK / GWNSGTIFV -> no signal (0 of 6 replicates)
- FFKLEDFGIS / VIYADGRRTAYVDDVK / GENAGTFQV -> 14 nM (6 of 6 replicates)
- GFDLDEYGIS / VIYADGMRTYYSDSVK / GENAGTFDV -> 6.7 pM (6 of 6 replicates)
- GFDLNEYGIS / VIYADGMRTSYADSVK / GEAAGTFDV -> 300 pM (6 of 6 replicates)
- GFDLNEYGIS / VIYADGMRTFYADSVK / GETAGTFDQ -> 2.2 nM (6 of 6 replicates)
- GFSLNSYGIS / VIYSDGEKTFYGDDVK / GNCAGTFPS -> no signal (0 of 6 replicates)
- GFDIDEYGIS / VIYADGQRTAYKPTVK / GNNTGLVFI -> 250 nM (1 of 6 replicates)
- GFDLNEYGIS / VIYADGRRTFYTDSVK / GTNAGTFDV -> 25 pM (6 of 6 replicates)
- GFDLDEYGIS / VIYADGMRTFYIDSVK / GETAGTFDS -> 360 pM (6 of 6 replicates)
- GFNLDEYGIS / VIYADGRRTFYQDSVK / GEGAGTFDL -> 39 nM (2 of 6 replicates)
- GFDLEEYGIS / VIYADGKRTAYTDSVK / GNVAGTFDV -> 490 pM (6 of 6 replicates)
- GFDLNDYGIS / VIYADGRRTQYIDSVK / GENAGTFDL -> 3.0 nM (6 of 6 replicates)
- GMNIDEYGIS / VIYADGMRTAYSNAVK / GAVGGDTIS -> 170 nM (1 of 6 replicates)
- GFDLNEYGIS / VIYADGMRTSYADDVK / GNVAGTFDV -> 270 pM (6 of 6 replicates)
- GFDLNEYGIS / VIYADGSRTFYSDSVK / GQTAGTFDV -> 1.3 nM (6 of 6 replicates)
- GFDLDEYGIS / VIYADGRRTFYADSVK / GRVAGTFDQ -> 250 pM (6 of 6 replicates)
- GFDLNEYGIS / VIYADGIRTAYVDSVK / GNVAGTFDV -> 540 pM (6 of 6 replicates)
- GFDLNEYGIS / VIYADGMRTFYADSVK / GNNAGTFDV -> 620 pM (6 of 6 replicates)
- GESLDEYGIS / VIYADGVRSQYTDQVK / GVETGAVLD -> 43 nM (5 of 6 replicates)
- GFQLDEYGIS / VIYADGRRTFYQDSVK / GEVAGTFDM -> 1.4 nM (6 of 6 replicates)
- GFDLNEYGIS / VIYADGVRTAYSDSVK / GQVAGTFDL -> 1.1 nM (6 of 6 replicates)
- GFDLNEYGIS / VIYADGKRTFYADSVK / GQIAGTFDS -> 200 pM (6 of 6 replicates)
- GFDLNEYGIS / VIYADGKRTYYADSVK / GENAGTFDV -> 810 pM (6 of 6 replicates)
- GFDLGEYGIS / VIYADGKRTACVTNVK / GTFGGTLLV -> no signal (0 of 6 replicates)
- GFDLDEYGIS / VIYADGTRKYYADNVK / GDYHYVVST -> no signal (0 of 6 replicates)
- GFDINEYGIS / VIYADGTKTAYANTVK / GKYVGTFVD -> no signal (0 of 6 replicates)
- GFDLDEYGIS / VIYADGMRTAYTDSVK / GNNAGTFDV -> 280 pM (6 of 6 replicates)
- GFDLNEYGIS / VIYADGLRTQYIDSVK / GEQAGTFDV -> 370 pM (6 of 6 replicates)
- GFDLNEYGIS / VIYADGMRTAYVDTVK / GNVAGTFDV -> 2.2 nM (6 of 6 replicates)
- GFDLNEYGIS / VIYADGMRTAYANSVK / GENAGTFDI -> 1.5 nM (6 of 6 replicates)
- GFDLNEYGIS / VIYADGRRTAYIDSVK / GEIAGTFDT -> 250 pM (6 of 6 replicates)
- GFDLDEYGIS / VIYADGMRTAYADDVK / GNNAGTFDL -> 710 pM (6 of 6 replicates)
- GFNLDEYGIS / VIYADGRRTFYADSVK / GQVAGTFVS -> 2.2 nM (6 of 6 replicates)

The first 5 entries again:

* GFDLDEYGIS / VIYADGMRTAYIDSVK / GTNAGTFDV -> 310 pM (6 of 6 replicates)
* GFDLNEYGIS / VIYADGLRSAYTDEVK / GKGDNIVFH -> no signal (0 of 6 replicates)
* GFDLEEYGIS / VIYADGLRSYYADNFK / GWNSGTIFV -> no signal (0 of 6 replicates)
* FFKLEDFGIS / VIYADGRRTAYVDDVK / GENAGTFQV -> 14 nM (6 of 6 replicates)
* GFDLDEYGIS / VIYADGMRTYYSDSVK / GENAGTFDV -> 6.7 pM (6 of 6 replicates)

The parent sequence was in this pool as ten entries: three were never detected, three once, and four in most replicates, with averages from 2.2 nM to 240 nM.
The authors averaged sequences with at least three values out of six and counted those with two or fewer as poor binders.
Empty control strains, which show no peptide, gave a signal in 1% of pairings with all heavy chain designs; the median was 120 nM and 95% of these signals were weaker than 7.0 nM. No background was subtracted.
The range of this assay differs from that of the first round, and the authors advise against merging the two.